This data set has as its target PgP (Homo sapiens, UniProt P08183). The data set is described as follows: Cellular transwell monolayer efflux assay in MDCK cells transfected with TREx-PgP.
Where [1] appears, read: 2.5 nM 3H-vinblastine, 250 μM verapamil.

By UniProt entry, the sequences of proteins in these tests, tags left out.
UniProt P08183, whole entry: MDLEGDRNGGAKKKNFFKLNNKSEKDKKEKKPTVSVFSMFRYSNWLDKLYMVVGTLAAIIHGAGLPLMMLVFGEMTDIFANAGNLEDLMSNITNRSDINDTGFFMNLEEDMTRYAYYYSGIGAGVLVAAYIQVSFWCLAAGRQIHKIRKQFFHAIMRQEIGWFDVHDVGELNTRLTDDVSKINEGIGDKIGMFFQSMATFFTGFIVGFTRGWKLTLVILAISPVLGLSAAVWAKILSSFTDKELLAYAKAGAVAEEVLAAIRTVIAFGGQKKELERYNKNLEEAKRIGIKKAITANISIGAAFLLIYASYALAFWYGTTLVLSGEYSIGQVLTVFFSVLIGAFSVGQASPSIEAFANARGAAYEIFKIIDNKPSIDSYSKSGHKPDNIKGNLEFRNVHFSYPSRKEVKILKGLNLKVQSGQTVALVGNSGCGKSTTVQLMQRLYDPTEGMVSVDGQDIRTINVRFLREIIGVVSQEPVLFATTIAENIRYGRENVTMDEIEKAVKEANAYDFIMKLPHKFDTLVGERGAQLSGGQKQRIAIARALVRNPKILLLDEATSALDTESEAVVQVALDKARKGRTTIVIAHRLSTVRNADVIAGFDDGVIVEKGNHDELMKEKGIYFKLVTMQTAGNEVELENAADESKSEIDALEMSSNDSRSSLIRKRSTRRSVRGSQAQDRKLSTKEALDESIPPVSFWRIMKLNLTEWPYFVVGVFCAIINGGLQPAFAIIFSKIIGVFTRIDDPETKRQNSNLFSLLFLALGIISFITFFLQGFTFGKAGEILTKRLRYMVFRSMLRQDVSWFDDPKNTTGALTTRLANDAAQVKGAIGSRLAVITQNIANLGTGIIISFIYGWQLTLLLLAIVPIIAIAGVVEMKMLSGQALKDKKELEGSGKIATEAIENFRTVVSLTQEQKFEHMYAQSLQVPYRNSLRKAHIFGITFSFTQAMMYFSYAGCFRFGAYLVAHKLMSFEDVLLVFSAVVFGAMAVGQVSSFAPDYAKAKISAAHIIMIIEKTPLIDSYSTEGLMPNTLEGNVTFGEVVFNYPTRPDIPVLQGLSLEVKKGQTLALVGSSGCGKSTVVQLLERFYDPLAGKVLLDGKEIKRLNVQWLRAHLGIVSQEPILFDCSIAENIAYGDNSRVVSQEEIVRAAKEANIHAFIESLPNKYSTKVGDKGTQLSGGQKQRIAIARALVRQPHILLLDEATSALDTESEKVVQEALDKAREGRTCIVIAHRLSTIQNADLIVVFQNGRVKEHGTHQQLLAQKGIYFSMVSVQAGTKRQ

Consider ^3H-vinblastine, for which, under setting [1], the “Apical to basolateral transport in the presence of verapamil” value is on record as “strongly increased” and the “Basolateral to apical transport in the presence of verapamil” value is given as “strongly decreased”. Moreover, under “with and without 250 μM verapamil”, the PgP substrate status result is “substrate of PgP”.

The values above are taken from patent publication US20050170394A1 (priority 2004, published 2005).
